Source: paper PMC3199867, “Targeting surface nucleolin with multivalent HB-19 and related Nucant pseudopeptides results in distinct inhibitory mechanisms depending on the malignant tumor cell type” (BMC Cancer, 2011)

What was measured:
HuT 78 [1] = experiment: Cell death (trypan blue uptake); format: cell-based, human; conditions: HuT 78, freshly passaged, N6L 10 μM, mean of at least 2 independent experiments
Method: Human breast (MDA-MB-231, MDA-MB-435 [37]), prostate (LNCaP, from American Type Culture Collection, ATCC, Rockville, MD), and cervical (HeLa) epithelial cancer cells were grown in DMEM-glutamax medium (Gibco Invitrogen, Cergy-Pontoise, France) containing GlutaMAX™, 4.5 g/l glucose and supplemented with 10% heat-inactivated (56°C for 30 min) fetal bovine serum (FBS; Hyclone, Thermo Fisher Scientific, Inc). Human SW480 cells are derived from a grade 3-4 colon carcinoma, while the highly metastatic counterpart SW620 is established from the lymph node of a person. Both SW480 and SW620 cells (obtained from Francis Raul, IRCAD) are highly tumorigenic in nude mice. They were cultured in D-MEM, 10% FCS. The murine melanoma TIII cell line was obtained from Armelle Prévost-Blondel. Murine T29 lymphoma cells, obtained from Philippe Kastner (CNRS, Strasbourg), have been established from Ik^L/L tumors from mice carrying a hypomorphic mutation (Ik^L/L) in the Ikaros gene encoding a transcription factor that regulates lymphocyte differentiation, and acts also as a tumor suppressor in T lymphocytes. The T29 cells were cultured in RPMI medium containing 25 mM Hepes pH 7.6, 1 mM sodium pyruvate, and 10% FCS. […] Cell death was monitored conveniently by uptake of the trypan blue dye due to plasma membrane permeability of dying and/or dead cells. […]

TIII [2] = experiment: Cell death (trypan blue uptake); format: cell-based, murine; conditions: subconfluent, N6L 10 μM, mean of at least 2 independent experiments
Method: (§1) Human breast (MDA-MB-231, MDA-MB-435 [37]), prostate (LNCaP, from American Type Culture Collection, ATCC, Rockville, MD), and cervical (HeLa) epithelial cancer cells were grown in DMEM-glutamax medium (Gibco Invitrogen, Cergy-Pontoise, France) containing GlutaMAX™, 4.5 g/l glucose and supplemented with 10% heat-inactivated (56°C for 30 min) fetal bovine serum (FBS; Hyclone, Thermo Fisher Scientific, Inc). Human SW480 cells are derived from a grade 3-4 colon carcinoma, while the highly metastatic counterpart SW620 is established from the lymph node of a person. Both SW480 and SW620 cells (obtained from Francis Raul, IRCAD) are highly tumorigenic in nude mice. They were cultured in D-MEM, 10% FCS. The murine melanoma TIII cell line was obtained from Armelle Prévost-Blondel. Murine T29 lymphoma cells, obtained from Philippe Kastner (CNRS, Strasbourg), have been established from Ik^L/L tumors from mice carrying a hypomorphic mutation (Ik^L/L) in the Ikaros gene encoding a transcription factor that regulates lymphocyte differentiation, and acts also as a tumor suppressor in T lymphocytes. The T29 cells were cultured in RPMI medium containing 25 mM Hepes pH 7.6, 1 mM sodium pyruvate, and 10% FCS. Human leukemia cell lines, Jurkat (acute T cell leukemia), HuT 78 (cutaneous T lymphocyte), RAJI (Burkitt lymphoma), and HL60 (promyelocytic leukemia) were cultured in RPMI-1640 medium (Gibco) containing GlutaMAX™, and supplemented with 10% heat-inactivated FBS as described before. The wild-type Chinese hamster ovary cell line (CHO K1) was purchased from American Type Culture Collection (ATCC; Rockville, MD). The CHO LRP1-null cell line (CHO-13-5-1) was kindly provided by D. Strickland [47]. They were cultured in Ham's F12K medium. All cells were cultured with 10% (v/v) heat inactivated (56°C, 30 min) fetal bovine serum (FBS) (Roche Molecular Biochemicals, Indianapolis, IN) and 50 international units/mL penicillin-streptomycin (Invitrogen). Cell death was monitored conveniently by uptake of the trypan blue dye due to plasma membrane permeability of dying and/or dead cells.

T29 = experiment: Cell death (trypan blue uptake); format: cell-based, murine
Method: as §1

MDA-MB 435 cells = experiment: Wound healing scratch assay (motility); format: cell-based, human; conditions: MDA-MB 435 confluent monolayers, 10 μM, 48 hours
Method: The wound healing assay of control and N6L treated MDA-MB 435 cells was performed as described previously. Briefly, confluent monolayers of cells (plated onto 60 mm^2 dishes) were scratched using 200 µl pipette tip, and cells were cultured in the absence (Control) or presence of N6L (10 µM) for 48 hours. Wound closure was monitored over time and photographed using Olympus 1-81 microscope at 40X magnification.

HeLa [3] = experiment: Cell death (trypan blue uptake); format: cell-based, human; conditions: subconfluent, N6L 10 μM, mean of at least 2 independent experiments
Method: as §1

MDA-MB 435 [4] = experiment: Cell death (trypan blue uptake); format: cell-based, human; conditions: MDA-MB 435, subconfluent, N6L 10 μM, mean of at least 2 independent experiments
Method: as §1

HL60 [5] = experiment: Cell death (trypan blue uptake); format: cell-based, human; conditions: HL60, freshly passaged, N6L 10 μM, mean of at least 2 independent experiments
Method: as §1

SW480 = experiment: Cell death (trypan blue uptake); format: cell-based, human; conditions: SW480, subconfluent, N6L 10 μM, mean of at least 2 independent experiments
Method: as §1

SW620 = experiment: Cell death (trypan blue uptake); format: cell-based, human; conditions: SW620, subconfluent, N6L 10 μM, mean of at least 2 independent experiments
Method: as §1

MDA-MB 231 [6] = experiment: Cell death (trypan blue uptake); format: cell-based, human; conditions: MDA-MB 231, subconfluent, N6L 10 μM, mean of at least 2 independent experiments
Method: as §1

Jurkat [7] = experiment: Cell death (trypan blue uptake); format: cell-based, human; conditions: freshly passaged, N6L 10 μM, mean of at least 2 independent experiments
Method: as §1

LNCaP [8] = experiment: Cell death (trypan blue uptake); format: cell-based, human; conditions: subconfluent, N6L 10 μM, mean of at least 2 independent experiments
Method: as §1

RAJI [9] = experiment: Cell death (trypan blue uptake); format: cell-based, human; conditions: freshly passaged, N6L 10 μM, mean of at least 2 independent experiments
Method: as §1

SW480 and SW620 cells = experiment: Spreading of colon carcinoma cells (microscopy); format: cell-based, human; conditions: 10 μM, 3 days
Method: SW420 (in section A; phase contrast images) and SW620 (in section B, immunofluorescence images) cells were cultured in the presence of 10 μM N6L for 3 days before analysis (Methods). […] The images were taken at 100- and 1000-fold magnification in section A and B, respectively.

HuT 78 [10] = experiment: Cell growth (viable cell number); format: cell-based, human; conditions: N6L 10 μM, viable cell number vs untreated control, mean of at least 2 independent experiments
Method: as §1

HeLa [11] = experiment: Cell growth (viable cell number); format: cell-based, human; conditions: N6L 10 μM, viable cell number vs untreated control, mean of at least 2 independent experiments
Method: as §1

MDA-MB 435 [12] = experiment: Cell growth (viable cell number); format: cell-based, human; conditions: N6L 10 μM, viable cell number vs untreated control, mean of at least 2 independent experiments
Method: as §1

HL60 [13] = experiment: Cell growth (viable cell number); format: cell-based, human; conditions: N6L 10 μM, viable cell number vs untreated control, mean of at least 2 independent experiments
Method: as §1

MDA-MB 231 [14] = experiment: Cell growth (viable cell number); format: cell-based, human; conditions: N6L 10 μM, viable cell number vs untreated control, mean of at least 2 independent experiments
Method: as §1

Jurkat [15] = experiment: Cell growth (viable cell number); format: cell-based, human; conditions: N6L 10 μM, viable cell number vs untreated control, mean of at least 2 independent experiments
Method: as §1

LNCaP [16] = experiment: Cell growth (viable cell number); format: cell-based, human; conditions: N6L 10 μM, viable cell number vs untreated control, mean of at least 2 independent experiments
Method: as §1

RAJI [17] = experiment: Cell growth (viable cell number); format: cell-based, human; conditions: N6L 10 μM, viable cell number vs untreated control, mean of at least 2 independent experiments
Method: as §1

TIII [18] = format: cell-based, murine; conditions: N6L 10 μM, viable cell number vs untreated control, mean of at least 2 independent experiments
Method: Human breast (MDA-MB-231, MDA-MB-435 [37]), prostate (LNCaP, from American Type Culture Collection, ATCC, Rockville, MD), and cervical (HeLa) epithelial cancer cells were grown in DMEM-glutamax medium (Gibco Invitrogen, Cergy-Pontoise, France) containing GlutaMAX™, 4.5 g/l glucose and supplemented with 10% heat-inactivated (56°C for 30 min) fetal bovine serum (FBS; Hyclone, Thermo Fisher Scientific, Inc). Human SW480 cells are derived from a grade 3-4 colon carcinoma, while the highly metastatic counterpart SW620 is established from the lymph node of a person. Both SW480 and SW620 cells (obtained from Francis Raul, IRCAD) are highly tumorigenic in nude mice. They were cultured in D-MEM, 10% FCS. The murine melanoma TIII cell line was obtained from Armelle Prévost-Blondel. Murine T29 lymphoma cells, obtained from Philippe Kastner (CNRS, Strasbourg), have been established from Ik^L/L tumors from mice carrying a hypomorphic mutation (Ik^L/L) in the Ikaros gene encoding a transcription factor that regulates lymphocyte differentiation, and acts also as a tumor suppressor in T lymphocytes. The T29 cells were cultured in RPMI medium containing 25 mM Hepes pH 7.6, 1 mM sodium pyruvate, and 10% FCS. […] Cell death was monitored conveniently by uptake of the trypan blue dye due to plasma membrane permeability of dying and/or dead cells.

CC(=O)N[C@@H](CCCCNC(=O)[C@H](CCCNC(=N)N)NC(=O)[C@@H]1CCCN1C[C@@H](N)CCCCN)C(=O)NC(C)(C)C(=O)NCC(=O)N[C@@H](CCCCNC(=O)[C@H](CCCNC(=N)N)NC(=O)[C@@H]1CCCN1C[C@@H](N)CCCCN)C(=O)NC(C)(C)C(=O)NCC(=O)N[C@@H](CCCCNC(=O)[C@H](CCCNC(=N)N)NC(=O)[C@@H]1CCCN1C[C@@H](N)CCCCN)C(=O)NC(C)(C)C(=O)NCC(=O)N[C@@H](CCCCNC(=O)[C@H](CCCNC(=N)N)NC(=O)[C@@H]1CCCN1C[C@@H](N)CCCCN)C(=O)NC(C)(C)C(=O)NCC(=O)N[C@@H](CCCCNC(=O)[C@H](CCCNC(=N)N)NC(=O)[C@@H]1CCCN1C[C@@H](N)CCCCN)C(=O)NC(C)(C)C(=O)NCC(=O)N[C@@H](CCCCNC(=O)[C@H](CCCNC(=N)N)NC(=O)[C@@H]1CCCN1C[C@@H](N)CCCCN)C(=O)NC(C)(C)C(=O)NCC(N)=O [Nucant N6L]
% Cell death After 24 hours (HuT 78 [1]): 55% | % Cell death After 24 hours (TIII [2]): < 5% | % Cell death After 24 hours (T29; T29, freshly passaged, N6L 10 μM, mean of at least 2 independent experiments): 65% | IC50 (T29; T29 cells, 0-20 μM, read-out: Cell death: IC50 24 hours post-passage): 5 to 10 µM | invasion of the scratched area (motility) (MDA-MB 435 cells): almost no cells are present at the middle of scratched area | % Cell death After 24 hours (HeLa [3]): < 5% | % Cell death After 24 hours (MDA-MB 435 [4]): < 5% | % Cell death After 24 hours (HL60 [5]): 48% | % Cell death After 24 hours (SW480): < 5% | % Cell death After 24 hours (SW620): < 5% | % Cell death After 24 hours (MDA-MB 231 [6]): < 5% | % Cell death After 24 hours (Jurkat [7]): 60% | % Cell death After 24 hours (LNCaP [8]): < 5% | % Cell death After 24 hours (RAJI [9]): 71% | phenotypic change / spreading (SW480 and SW620 cells): typical circular colonies instead of spreading and growing in several layers | % Growth inhibition After 3 days (HuT 78 [10]): 83% | % Growth inhibition After 3 days (HeLa [11]): 60% | % Growth inhibition After 3 days (MDA-MB 435 [12]): 66% | % Growth inhibition After 3 days (HL60 [13]): 80% | % Growth inhibition After 3 days (MDA-MB 231 [14]): 95% | % Growth inhibition After 3 days (Jurkat [15]): 85% | % Growth inhibition After 3 days (LNCaP [16]): 90% | % Growth inhibition After 3 days (RAJI [17]): 95% | % Growth inhibition After 3 days (TIII [18]): 83%
